Experimental findings from patent US20240009143A1, “EXTRACTION OF SHIKONIN FROM ARNEBIA DECUMBENS ROOTS AND USE OF SHIKONIN DERIVATIVES FOR TREATING ULCERS” (KUWAIT UNIVERSITY, priority 2022, published 2024) are described below.

The data set in a line: Absorbance of UVA & UVB. The class given is physicochemical.

Consider shikonin-isovalerate [compound C], for which the “change of absorbance of UVA & UVB compared with shikonin (Fraction E)” value was “decreased”.
